This is an account of results in patent US10202326B2, “Polyprenylated phloroglucinol compounds as potent P-glycoprotein inducers” (COUNCIL OF SCIENTIFIC & INDUSTRIAL RESEARCH, priority 2014, dated 2019).

In this assay the test system is P-glycoprotein (Pgp). As to the kind of experiment: Pgp-induction assay, rhodamine123 (Rh123) cell exclusion method in LS180 cells. The format is cell-based. The following applies: 1b, 1g versus garcinol (1a), 2b versus isogarcinol (2a). On the procedure:
All synthesized compounds were screened for their ability to induce Pgp by using rhodamine123 (Rh123) cell exclusion method. In this method, the Pgp function was evaluated in terms of rhodamine 123 (Rh123) accumulations and efflux. Briefly, the protocol used is as follows: Colorectal LS180 cells Colorectal LS-180 cells [obtained from ECACC (European Collection of Cell Cultures) catalogue number: 87021202; passage number 52] were seeded at a density of 2×10^4 per well of 96 well plate and were allowed to grow for next 24 h. Cells were further incubated with the test compounds, and were diluted to a final concentration of 100 nM and rifampicin (standard) to a final concentration of 10 μM in complete media for 48 h. The final concentration of DMSO was kept at 0.1%. Drugs were removed and cells were incubated with HANKS buffer for 40 minutes before further incubation with HANKS buffer (containing 10 μM of Rh123 as a Pgp substrate) for 90 minutes. […] A total of 100 μl of lysate was used for reading fluorescence of Rh123 at 485 nm/529 nm. Samples were normalized by dividing fluorescence of each sample with total protein present in the lysate. […] EC50 was determined by plotting fluorescence of Rh123 against concentration of compound.

As to `C=C(C)C(CC=C(C)C)CC12CC(CC=C(C)C)C(C)(C)C(CC=C(C)C)(C(=O)C(C(=O)c3ccc(OCc4ccccc4[N+](=O)[O-])c(OCc4ccccc4[N+](=O)[O-])c3)=C1O)C2=O` (stereo not shown) [Compound 1g, 3′,4′-di-[O-(2″-nitro-benzyl)]-garcinol], the “Pgp induction activity compared to parent natural product” value is given as “better”.
